{"source": "PubChem BioAssay AID624168", "about": "(Sanford-Burnham Center for Chemical Genomics, 2012)", "note": "This is a selection; strong and weak results do not stand in their true shares. Calls of active or inactive are those of the source.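 The calls were made as follows: active = activation of at least 8% versus controls, or a plate z-score of at least 8; inactive = the rest.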"}
{"assay": "compounds raising alpha-dystroglycan glycosylation – uHTS, Pro5-aDG cells, AlphaScreen, primary screen (AID 624168);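 also: Pro5 are CHO cells carrying HIG-tagged alpha-DG that lacks glycosylation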", "details": "alpha-DG glycosylation AlphaScreen (IIH6), at 10 µM, stronger effect = higher value, 0% Pro5, 100% B10-LARGE cell signal"}
{"compound": "CCC(=O)N(c1ccccc1)C1(COC)CCN(CCc2cccs2)CC1", "activation": "inactive: -0.3%"}
{"compound": "CCC(=O)N(c1ccccc1)C1(COC)CCN(CCn2nnn(CC)c2=O)CC1", "activation": "inactive: 0%"}
